Experimental data taken from patent US20160175306A1, “COMBINATION OF A IMIDAZOPYRIDAZINE DERIVATIVE AND A MITOTIC AGENT FOR THE TREATMENT OF CANCER” (BAYER PHARMA AKTIENGESELLSCHAFT, priority 2013, published 2016).

Tested on: HeLa human cervical tumour cells
Test: Proliferation Assay with HeLa cells
Type: cell-based
Settings: 96 h, 4 days, crystal violet
Description: Cultivated tumour cells (MCF7, hormone dependent human mammary carcinoma cells, ATCC HTB22; NCI-H460, human non-small cell lung carcinoma cells, ATCC HTB-177; DU 145, hormone-independent human prostate carcinoma cells, ATCC HTB-81; HeLa-MaTu, human cervical carcinoma cells, EPO-GmbH, Berlin; HeLa-MaTu-ADR, multidrug-resistant human cervical carcinoma cells, EPO-GmbH, Berlin; HeLa human cervical tumour cells, ATCC CCL-2; B16F10 mouse melanoma cells, ATCC CRL-6475) were plated at a density of 5000 cells/well (MCF7, DU145, HeLa-MaTu-ADR), 3000 cells/well (NCI-H460, HeLa-MaTu, HeLa), or 1000 cells/well (B16F10) in a 96-well multititer plate in 200 μL of their respective growth medium supplemented 10% fetal calf serum.
After 24 hours, the cells of one plate (zero-point plate) were stained with crystal violet (see below), while the medium of the other plates was replaced by fresh culture medium (200 μl), to which the test substances were added in various concentrations (0 μM, as well as in the range of 0.01-30 μM; the final concentration of the solvent dimethyl sulfoxide was 0.5%). […] Cell proliferation was determined by staining the cells with crystal violet: the cells were fixed by adding 20 μl/measuring point of an 11% glutaric aldehyde solution for 15 minutes at room temperature. […] The extinction was determined by photometry at a wavelength of 595 nm. […]

Compound: COc1ccc(Oc2cc(NCCC(F)(F)F)c3ncc(-c4ccc(C(=O)NC5CC5)c(C)c4)n3n2)c(F)c1F [Compound A27, N-cyclopropyl-4-{6-(2,3-difluoro-4-methoxyphenoxy)-8-[(3,3,3-trifluoropropyl)amino]imidazo[1,2-b]pyridazin-3-yl}-2-methylbenzamide]
- IC50: < 25 nM
